Tested on: S. typhi GFP reporter counter-screen, fluorescence, 4 h
Test: inhibitors in S. typhi counter-screen strain, dose response, counter-screen for PhoP regulon inhibitor project, fluorescence, 4 h (AID 2384)

CC(C)(C)c1nnc(N/N=C/c2cc(Br)ccc2O)n(N)c1=O
IC50: 76.1 µM

O=C(N/N=C/c1ccc([N+](=O)[O-])o1)C1CC1
IC50: 36.3 µM

O=C(Nc1cccnc1)c1ccc([N+](=O)[O-])o1
IC50: 44.3 µM

O=C(NNC(=S)Nc1ccc(Cl)c(Cl)c1)c1ccccn1
IC50: 13.6 µM

CCOC(=O)c1cn(CC)c2cc(N3CCN(C)CC3)c(F)cc2c1=O
IC50: 128 µM
